# In article PMC8779485, “Implementation and Comparison of Two Pharmacometric Tools for Model-Based Therapeutic Drug Monitoring and Precision Dosing of Daptomycin” (Pharmaceutics, 2022):
# How the values were obtained:
# [1] = human, in vivo
# [2] = human, in vivo; SD
smiles,measurement,setting,value
"CCCCCCCCCC(=O)N[C@@H](Cc1c[nH]c2ccccc12)C(=O)N[C@H](CC(N)=O)C(=O)N[C@@H](CC(=O)O)C(=O)N[C@@H]1C(=O)NCC(=O)N[C@@H](CCCN)C(=O)N[C@@H](CC(=O)O)C(=O)N[C@H](C)C(=O)N[C@@H](CC(=O)O)C(=O)NCC(=O)N[C@H](CO)C(=O)N[C@@H]([C@H](C)CC(=O)O)C(=O)N[C@@H](CC(=O)c2ccccc2N)C(=O)O[C@@H]1C [daptomycin, Daptomycin]",Proportion of patients with Cmin > 24.3 mg/L (overexposed),[1],31.9%
same,Dmax (maximum effective dose associated with Cmin = 24.3 mg/L at steady-state),[1]; SD,12.0 ± 8.6 mg/kg
same,Dmax (maximum effective dose associated with Cmin = 24.3 mg/L at steady-state),[2],14.7 ± 10.7 mg/kg

# Where two headings read alike, the source gives them in different places.
